From US10357573B2, “Block copolymer conjugate of physiologically active substance” (Nippon Kayaku Kabushiki Kaisha, priority 2015, dated 2019)
Several values for one entry are separate records, joined by “and”; a condition that tells them apart may be missing. Equal values may be shown once. Read-outs that look alike come from different tables or passages of the source.

What was measured:
[1] = 5 mg/kg as converted to BODIPY, mixture iv once, one hour after administration
Excerpt: (§1) A tumor mass of human pancreatic cancer BxPC3 that had been subcultured by subcutaneous transplantation in a BALB/c nude mouse was cut into a block having a size of about 3 mm on each side, and this block was subcutaneously transplanted on the dorsal side of a nude mouse using a trocar.

[2] = system: human pancreatic cancer BxPC3; conditions: 5 mg/kg as converted to BODIPY, mixture iv once, one hour after administration
Excerpt: as §1

[3] = for prolonged hematotoxicity: 75 mg/kg, 3 days after administration; for Number of platelets: 75 mg/kg as converted to Ganetespib, iv once, 3rd day after administration
Protocol: As a control group, a 5% glucose injection solution was intravenously administered once through the caudal vein.
About 3 μL of an EDTA-2K solution had been added in advance to the syringe, and this solution was sufficiently mixed with the blood thus collected. The resultant solutions were used as analysis samples. The blood samples were subjected to a blood cell analysis using a blood cell analysis apparatus XT-2000iV (Sysmex Corp.).

[4] = Test Example C-1 intrarenal distribution test; type: in vivo, nude mouse; conditions: 5 mg/kg as converted to 2-(2-aminoethoxy)-9-(diethylamino)-5H-benzo[a]phenoxazin-5-one, iv once, one hour after administration
Excerpt: as §1, with “trocar. […] One hour after the administration, blood was removed from the mouse under isoflurane anesthesia, frozen embedded slices of the removed tumor and the kidneys were produced, and fluorescence was observed.” for “trocar.”

[5] = Light scattering intensity of 1 mg/mL aqueous solution, relative to toluene; type: physicochemical; conditions: for relative ratio between the light scattering intensity and the light scattering intensity of toluene: 1 mg/mL aqueous solution vs standard toluene solution under the same conditions; for light scattering intensity of a 1 mg/mL aqueous solution: 1 mg/mL in ultrapure water, 25° C., wavelength 632.8 nm
Protocol: Regarding the measurement sample for the scattering intensity measurement, a solution obtained by adding ultrapure water to a physiologically active substance-conjugated block copolymer to obtain a concentration of 1 mg/mL, dissolving the block copolymer by irradiating the mixture with ultrasonic waves for 10 minutes under ice cooling, and then filtering the solution through a 0.2-μm membrane filter, was used.
Toluene (manufactured by Junsei Chemical Co., Ltd., special grade) that was used for the measurement of the light scattering intensity, was used after being filtered three times through a 0.2-μm membrane filter.

[6] = system: human pancreatic cancer BxPC3; test: Test Example C-1 intratumor distribution test; type: in vivo, nude mouse; conditions: 5 mg/kg as converted to 2-(2-aminoethoxy)-9-(diethylamino)-5H-benzo[a]phenoxazin-5-one, iv once, one hour after administration
Excerpt: as §1, with “trocar. […] One hour after the administration, blood was removed from the mouse under isoflurane anesthesia, frozen embedded slices of the removed tumor and the kidneys were produced, and fluorescence was observed.” for “trocar.”

[7] = Volume average particle diameter by dynamic light scattering; type: physicochemical
Protocol: Measurement of the volume average particle diameters of the physiologically active substance-conjugated block copolymers of Examples and Comparative Examples was carried out using a ZetaPotential/Particlesizer NICOMP 380 ZLS (device A; temperature: 25° C.) manufactured by Particle Sizing Systems, LLC, or a particle size zeta potential analyzer, ZETASIZER NANO ZS (device B; measurement temperature: 25° C., analysis model: General Purpose (normal resolution), material RI: 1.59) manufactured by Malvern Instruments, Ltd. Regarding the volume average particle diameter measurement sample, a solution obtained by adding ultrapure water to a physiologically active substance-conjugated block copolymer to obtain a concentration of 1 mg/mL or 5 mg/mL, dissolving the block copolymer by irradiating the mixture with ultrasonic waves for 10 minutes under ice cooling, and then filtering the solution through a 0.2-μm membrane filter, was used.

## 4-isopropyl-6-(4-(1-methyl-1H-indol-5-yl)-5-methylene-4,5-dihydro-1H-1,2,4-triazol-3-yl)benzene-1,3-diol and BODIPY-FL Conjugate of polyethylene glycol (2 Kilodaltons)-polyglutamic Acid (7.9 Polymer) Block Copolymer [Example B-2]
[1]
  tissue distribution in kidney slices (fluorescence): fluorescence was observed in the blood vessels and in the renal tubules
[2]
  tissue distribution in tumor slices (fluorescence): accumulated in the tumor tissue and penetrated into deep parts of the tumor tissue
[3]
  prolonged hematotoxicity: prolonged hematotoxicity occurred to a low extent

## Cabazitaxel (CBZ) and 2-(2-aminoethoxy)-9-(diethylamino)-5H-benzo[a]phenoxazin-5-one Conjugate of polyethylene glycol (12 Kilodaltons)-α,β-polyaspartic Acid (23.8 Polymer) Block Copolymer [Comparative Example C-2]
[4]
  tissue distribution in kidney slices (fluorescence): fluorescence was not recognized in areas other than the blood vessels
[5]
  relative ratio between the light scattering intensity and the light scattering intensity of toluene: twice or more
[6]
  tissue distribution in tumor slices (fluorescence): migration and accumulation in the tumor tissue was low

## 4-isopropyl-6-(4-(1-methyl-1H-indol-5-yl)-5-methylene-4,5-dihydro-1H-1,2,4-triazol-3-yl)benzene-1,3-diol Conjugate of polyethylene glycol (2 Kilodaltons)-polyglutamic Acid (7.9 Polymer) Block Copolymer [Example B-1]
[7]; device A, 5 mg/mL
  volume average particle diameter: 11 nm
[5]
  light scattering intensity of a 1 mg/mL aqueous solution: 83,228 cps
[3]
  Number of platelets: 54.6 ± 6.6 ×10^4/μL

## Cabazitaxel (CBZ) and n-butylamine Conjugate of polyethylene glycol (2 Kilodaltons)-α,β-polyaspartic Acid (12.5 Polymer) Block Copolymer [Example C-1]
[7]; device A, 1 mg/mL
  volume average particle diameter: 6.3 nm
[5]
  relative ratio between the light scattering intensity and the light scattering intensity of toluene: 3.0 times
  light scattering intensity of a 1 mg/mL aqueous solution: 13,018 cps

## docetaxel (DTX) and 4-phenylbutylamine Conjugate of polyethylene glycol (2 kilodaltons)-α,β-polyaspartic Acid (12.5 Polymer) Block Copolymer [Example C-5]
[5]
  relative ratio between the light scattering intensity and the light scattering intensity of toluene: 22.7 times
  light scattering intensity of a 1 mg/mL aqueous solution: 162,126 cps

## 4-isopropyl-6-(4-(1-methyl-1H-indol-5-yl)-5-methylene-4,5-dihydro-1H-1,2,4-triazol-3-yl)benzene-1,3-diol and BODIPY-TR Conjugate of polyethylene glycol (12 Kilodaltons)-polyglutamic Acid (25 Polymer) Block Copolymer [Comparative Example B-2, reference compound]
[1]
  tissue distribution in kidney slices (fluorescence): fluorescence was not recognized in areas other than in the blood vessels
[2]
  tissue distribution in tumor slices (fluorescence): did not deliver the drug to the whole area of the tumor tissue

## 4-isopropyl-6-(4-(1-methyl-1H-indol-5-yl)-5-methylene-4,5-dihydro-1H-1,2,4-triazol-3-yl)benzene-1,3-diol Conjugate of polyethylene glycol (5 Kilodaltons)-polyglutamic Acid (10 Polymer) Block Copolymer [Example B-6]
[7]; device A, 5 mg/mL
  volume average particle diameter: 12 nm
[5]
  light scattering intensity of a 1 mg/mL aqueous solution: 88,115 cps

## Cabazitaxel (CBZ) Conjugate of polyethylene glycol (12 Kilodaltons)-α,β-polyaspartic Acid (23.8 Polymer) Block Copolymer [Comparative Example C-1, reference compound]
[7]; device A, 1 mg/mL
  volume average particle diameter: 22 nm
[5]
  relative ratio between the light scattering intensity and the light scattering intensity of toluene: 5.7 times
  light scattering intensity of a 1 mg/mL aqueous solution: 24,804 cps

## 4-isopropyl-6-(4-(1-methyl-1H-indol-5-yl)-5-methylene-4,5-dihydro-1H-1,2,4-triazol-3-yl)benzene-1,3-diol Conjugate of polyethylene glycol (2 Kilodaltons)-polyglutamic Acid (12 Polymer) Block Copolymer [Example B-5]
[7]; device B, 5 mg/mL
  volume average particle diameter: 14 nm
[5]
  relative ratio between the light scattering intensity and the light scattering intensity of toluene: 6.8 times and 11.9 times
  light scattering intensity of a 1 mg/mL aqueous solution: 50,425 cps

## Cabazitaxel (CBZ)/n-butylamine/2-(2-aminoethoxy)-9-(diethylamino)-5H-benzo[a]phenoxazin-5-one Conjugate of polyethylene glycol (2 Kilodaltons)-α,β-polyaspartic Acid (12.5 Polymer) Block Copolymer [Example C-3]
[4]
  tissue distribution in kidney slices (fluorescence): fluorescence was observed in the renal tubules
[6]
  tissue distribution in tumor slices (fluorescence): capable of penetrating into deep parts of the tumor tissue

## 4-isopropyl-6-(4-(1-methyl-1H-indol-5-yl)-5-methylene-4,5-dihydro-1H-1,2,4-triazol-3-yl)benzene-1,3-diol Conjugate of polyethylene glycol (2 Kilodaltons)-polyglutamic Acid (6 Polymer) Block Copolymer [Example B-3]
[7]; device A, 5 mg/mL
  volume average particle diameter: 8 nm and 11 nm

## Cabazitaxel (CBZ) Conjugate of polyethylene glycol (5 Kilodaltons)-α-polyaspartic Acid (20.0 Polymer) Block Copolymer [Example C-2]
[7]; device B, 1 mg/mL
  volume average particle diameter: 10 nm
[5]
  relative ratio between the light scattering intensity and the light scattering intensity of toluene: 2.5 times
  light scattering intensity of a 1 mg/mL aqueous solution: 10,382 cps

## Cabazitaxel (CBZ) Conjugate of polyethylene glycol (2 Kilodaltons)-α,β-polyaspartic Acid (12.5 Polymer) Block Copolymer [Example C-4]
[7]; device A, 1 mg/mL
  volume average particle diameter: 12 nm
[5]
  relative ratio between the light scattering intensity and the light scattering intensity of toluene: 24.7 times
  light scattering intensity of a 1 mg/mL aqueous solution: 176,886 cps

## 4-isopropyl-6-(4-(1-methyl-1H-indol-5-yl)-5-methylene-4,5-dihydro-1H-1,2,4-triazol-3-yl)benzene-1,3-diol Conjugate of polyethylene glycol (12 Kilodaltons)-polyglutamic Acid (25 Polymer) Block Copolymer [Comparative Example B-1, reference compound]
[7]; device A, 1 mg/mL
  volume average particle diameter: 25 nm
[5]
  light scattering intensity of a 1 mg/mL aqueous solution: 294,722 cps
[3]
  Number of platelets: 9.8 ± 3.5 ×10^4/μL
  prolonged hematotoxicity: prolonged hematotoxicity was recognized
